This is a selection; strong and weak results do not stand in their true shares. Activity calls are given as the source filed them.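 Rule for the calls: active = every replicate showing at least 50% inhibition; inconclusive = mean inhibition at least 50% but not in every replicate; inactive = the rest.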

By UniProt entry, the sequences of proteins in these tests, tags left out.
UniProt P43351, whole entry: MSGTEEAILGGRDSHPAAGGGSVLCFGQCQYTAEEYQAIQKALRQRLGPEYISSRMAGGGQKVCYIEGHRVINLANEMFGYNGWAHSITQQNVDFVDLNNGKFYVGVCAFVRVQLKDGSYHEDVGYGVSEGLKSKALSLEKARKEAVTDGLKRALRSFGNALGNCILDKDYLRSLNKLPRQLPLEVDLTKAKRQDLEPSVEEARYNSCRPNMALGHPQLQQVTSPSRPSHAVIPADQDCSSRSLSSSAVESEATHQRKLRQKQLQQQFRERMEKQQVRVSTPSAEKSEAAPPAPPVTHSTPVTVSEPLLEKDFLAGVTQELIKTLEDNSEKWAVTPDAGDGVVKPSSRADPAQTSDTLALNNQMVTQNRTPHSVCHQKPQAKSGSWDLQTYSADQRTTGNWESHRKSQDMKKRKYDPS

In the assay the target is DNA repair protein RAD52 homolog (Homo sapiens) (UniProt P43351). Kind of assay: RAD52 DNA annealing inhibitors, primary screen, biochemical, FRET, single point, set 2 (AID 651710). The note with it: recombinant RAD52 DNA annealing, FRET fluorescence; at 18.7 µM; stronger effect = higher value.
Usually inhibition stands for the relative decrease from the control value, in per cent. In the case of `CCC(=O)N(c1ccccc1)C1(COC)CCN(CCc2cccs2)CC1`, the inhibition is inactive: -0.804%.

As for `CCC(=O)N(c1ccccc1)C1(COC)CCN(CCn2nnn(CC)c2=O)CC1`, the inhibition is inactive: -13.1%.

Values taken from PubChem BioAssay AID651710 (Broad Institute, 2012).
